Laboratory results as given in ChEMBL document CHEMBL3227956 (J Med Chem, 1979).

Columns and labels:
[1] = Half life in D2O/Me2SO-d6 at 80 degC
[2] = Half life in D2O/Me2SO-d6 at 50 degC
[3] = Hydrolytic stability in D2O/Me2SO-d6 at 0.07 M at 37 degC after 40 days by NMR analysis; parameters: scale not given: the % may be the effect or the level left; conditions: 960 h

O=[P@@]1(N(CCCl)CCCl)OC[C@@H]2C[N@@]21
t1/2 [1]: < 30 min
t1/2 [2]: 5 min

O=P1(N(CCCl)CCCl)OCC2CN21 (stereo not given)
Stability [1]: Stable

O=[P@]1(N(CCCl)CCCl)OC[C@@H]2C[N@@]21
t1/2 [1]: < 30 min

O=P1(N(CCCl)CCCl)NCC(Br)CO1 (stereo not given)
Stability [3]: 50%
